Assay: Stability of test stimuli over the testing period (score per study visit day, linear regression)
Type: physicochemical
Details: stimuli made once, stored at room temperature, used throughout four-month study
Source text: To calculate the stability of SMELL-S (panel A) and SMELL-R (panel B), the median and interquartile range of testing score per study visit day were plotted. The slope of the data was fitted by linear regression, and analyzed for significant difference from a slope of zero, which would correspond to perfect stability across the testing period. Stimuli for each test were freshly made only once at the beginning of the study, stored at room temperature in a ventilated lab, and used throughout the study. Study visit days took place 2-3 times a week. We tested 75 subjects who performed each one of the 4 tests twice.
The disclosure includes a proviso that any compound or combination of compounds can be excluded from the claims of this application or patent, including but not necessarily limited to those compounds disclosed herein as “excluded” wherein the exclusion is for any reason, including but not limited to lateralization score or intensity-matching, or a combination thereof. […] In embodiments, stability is determined by the combination of compounds remaining suitable for using in a method described herein. […] The slope of the data was fitted by linear regression (but other statistical methods that will be apparent to those skilled in the art could also be used) and analyzed for significant difference from a slope of zero, which would correspond to perfect stability across the testing period. […]

Substance: butanol
- stability of stimuli: not stable

Source: patent US12364429B2, “Compositions and methods for a universal clinical test for olfactory dysfunction” (The Rockefeller University, priority 2017, dated 2025)
